# The other results are listed elsewhere or left out. Entries with a potency or affinity are not part of this list. Calls of active or inactive are those of the source.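 The calls were made as follows: active = fold induction of absorbance versus untreated yeast above a set limit, then at least 30% activation at any dose in follow-up; inconclusive = repeats straddling the limit, or above it without dose testing; inactive = fold induction below the set limit.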
# Experiment: mitochondrial function rescue without frataxin homolog – Friedreich's ataxia, plus single-dose screen, dose response (AID 1465)
# Settings: S. cerevisiae Yfh1-off respiration, WST-1 reduction, 72 h; at 50 µM; active compounds read high
row,SMILES,fold induction
1,Cc1ccc(OCC(C)C)c(CN(CCCl)CCCl)c1,inactive: 1.06
2,COc1ccc(NC2CCN(CCc3ccccc3)CC2)c(OC)c1,inactive: 1.03
3,CCOc1ccc(C)cc1CN(CCCl)CCCl,inactive: 1.02
4,O=C(OC1CN2CCC1CC2)C1c2ccccc2Oc2ccccc21 (centres undefined),inactive: 1.05
5,N#CC1(Nc2ccccc2)CCN(Cc2ccccc2)CC1,inactive: 1
6,CCOC(=O)N1CCC(Nc2ccc(OC)cc2)CC1,inactive: 1.02
7,O=C(NCC1(N2CCOCC2)CCCCC1)c1cc2ccccc2o1,inactive: 0.877
8,COc1ccc(C(=O)NCC2(N3CCCCC3)CCCCC2)c(OC)c1OC,inactive: 1.03
9,CN1CCC(Nc2cccc(F)c2)CC1,inactive: 1.01
10,CC(C)c1ccc(NC2CCN(C(=O)OC(C)(C)C)CC2)cc1,inactive: 0.85
11,COc1ccc(CN(CCCl)CCCl)cc1Cl,inactive: 0.89
12,CN(C)c1cccc(C(=O)NCC2(N3CCCCC3)CCCCC2)c1,inactive: 1.05
13,O=C(NCC1(N2CCOCC2)CCCCC1)c1cc(=O)[nH]c2ccccc12,inactive: 1.07
14,CN1CCN(CCOC(=O)C(O)(c2ccccc2)c2ccccc2)CC1,inactive: 0.88
15,COc1ccc(NC2CCN(C(=O)OC(C)(C)C)CC2)cc1,inactive: 1.06
16,N#CC1(Nc2ccccc2)CCN(CCc2ccccc2)CC1,inactive: 1.04
17,O=C(NCC1(N2CCCCC2)CCCCC1)c1cccc([N+](=O)[O-])c1,inactive: 0.98
18,c1ccc(CN2CCC(Nc3ccccc3)CC2)cc1,inactive: 1.01
19,N#Cc1ccc(C(=O)NCC2(N3CCCCC3)CCCCC2)cc1,inactive: 1.05
20,O=C(OC1CN2CCC1CC2)C1c2ccccc2C=Cc2ccccc21 (centres undefined),inactive: 1.09
21,COc1ccc(C(=O)NCC2(N3CCOCC3)CCCCC2)cc1OC,inactive: 1.02
22,CCCOc1ccc(C)cc1CN(CCCl)CCCl,inactive: 1.02
23,COc1cc(OC)cc(C(=O)NCC2(N3CCOCC3)CCCCC2)c1,inactive: 1.12
24,CCC(CO)(C(=O)OC1CN2CCC1CC2)c1ccccc1 (centres undefined),inactive: 1.01
25,CC(C)(C)OC(=O)N1CCC(Nc2ccccc2)CC1,inactive: 0.92
26,CCOc1ncccc1C(=O)NCC1(N2CCOCC2)CCCCC1,inactive: 1.01
27,CN(C)c1ccc(C(=O)NCC2(N3CCCCC3)CCCCC2)cc1,inactive: 0.98
28,CCN1CCC(Nc2cccc(F)c2)CC1,inactive: 0.99
29,Fc1ccccc1NC1CCN(Cc2ccccc2)CC1,inactive: 0.98
